# Legend:
# Chains of the proteins cited; added tags and fusions are not shown. Lines headed by an entry give the natural chain unless they say otherwise; changes in a name come on top.
# UniProt P23458: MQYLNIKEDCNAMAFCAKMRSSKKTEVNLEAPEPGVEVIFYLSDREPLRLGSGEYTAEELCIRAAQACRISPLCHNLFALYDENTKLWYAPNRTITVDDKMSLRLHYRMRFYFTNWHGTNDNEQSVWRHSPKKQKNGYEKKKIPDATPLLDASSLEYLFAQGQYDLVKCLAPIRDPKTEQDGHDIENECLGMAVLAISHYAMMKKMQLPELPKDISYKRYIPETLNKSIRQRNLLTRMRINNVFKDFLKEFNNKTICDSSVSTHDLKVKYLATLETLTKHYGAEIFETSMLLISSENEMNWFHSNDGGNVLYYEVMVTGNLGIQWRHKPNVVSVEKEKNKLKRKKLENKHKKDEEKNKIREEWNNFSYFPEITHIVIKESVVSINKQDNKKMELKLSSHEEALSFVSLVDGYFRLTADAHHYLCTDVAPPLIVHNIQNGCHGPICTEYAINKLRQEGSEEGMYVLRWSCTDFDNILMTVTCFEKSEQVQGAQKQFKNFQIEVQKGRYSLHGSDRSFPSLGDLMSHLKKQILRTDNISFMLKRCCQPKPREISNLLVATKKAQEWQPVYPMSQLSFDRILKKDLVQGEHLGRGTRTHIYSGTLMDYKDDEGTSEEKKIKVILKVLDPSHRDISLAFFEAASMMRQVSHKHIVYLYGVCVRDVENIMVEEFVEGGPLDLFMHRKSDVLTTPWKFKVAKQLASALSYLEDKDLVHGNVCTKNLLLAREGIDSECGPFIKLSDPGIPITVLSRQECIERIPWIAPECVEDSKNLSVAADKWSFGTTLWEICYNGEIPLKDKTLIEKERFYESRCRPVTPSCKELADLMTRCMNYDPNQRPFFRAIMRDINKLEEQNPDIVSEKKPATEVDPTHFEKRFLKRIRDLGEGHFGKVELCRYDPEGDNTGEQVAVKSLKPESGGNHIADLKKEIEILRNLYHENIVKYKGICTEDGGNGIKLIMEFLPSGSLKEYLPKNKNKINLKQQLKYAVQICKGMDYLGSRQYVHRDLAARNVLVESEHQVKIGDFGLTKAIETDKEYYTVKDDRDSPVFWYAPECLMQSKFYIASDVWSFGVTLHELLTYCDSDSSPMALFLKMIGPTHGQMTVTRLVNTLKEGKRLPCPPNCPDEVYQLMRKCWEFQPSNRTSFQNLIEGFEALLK
# UniProt P52333: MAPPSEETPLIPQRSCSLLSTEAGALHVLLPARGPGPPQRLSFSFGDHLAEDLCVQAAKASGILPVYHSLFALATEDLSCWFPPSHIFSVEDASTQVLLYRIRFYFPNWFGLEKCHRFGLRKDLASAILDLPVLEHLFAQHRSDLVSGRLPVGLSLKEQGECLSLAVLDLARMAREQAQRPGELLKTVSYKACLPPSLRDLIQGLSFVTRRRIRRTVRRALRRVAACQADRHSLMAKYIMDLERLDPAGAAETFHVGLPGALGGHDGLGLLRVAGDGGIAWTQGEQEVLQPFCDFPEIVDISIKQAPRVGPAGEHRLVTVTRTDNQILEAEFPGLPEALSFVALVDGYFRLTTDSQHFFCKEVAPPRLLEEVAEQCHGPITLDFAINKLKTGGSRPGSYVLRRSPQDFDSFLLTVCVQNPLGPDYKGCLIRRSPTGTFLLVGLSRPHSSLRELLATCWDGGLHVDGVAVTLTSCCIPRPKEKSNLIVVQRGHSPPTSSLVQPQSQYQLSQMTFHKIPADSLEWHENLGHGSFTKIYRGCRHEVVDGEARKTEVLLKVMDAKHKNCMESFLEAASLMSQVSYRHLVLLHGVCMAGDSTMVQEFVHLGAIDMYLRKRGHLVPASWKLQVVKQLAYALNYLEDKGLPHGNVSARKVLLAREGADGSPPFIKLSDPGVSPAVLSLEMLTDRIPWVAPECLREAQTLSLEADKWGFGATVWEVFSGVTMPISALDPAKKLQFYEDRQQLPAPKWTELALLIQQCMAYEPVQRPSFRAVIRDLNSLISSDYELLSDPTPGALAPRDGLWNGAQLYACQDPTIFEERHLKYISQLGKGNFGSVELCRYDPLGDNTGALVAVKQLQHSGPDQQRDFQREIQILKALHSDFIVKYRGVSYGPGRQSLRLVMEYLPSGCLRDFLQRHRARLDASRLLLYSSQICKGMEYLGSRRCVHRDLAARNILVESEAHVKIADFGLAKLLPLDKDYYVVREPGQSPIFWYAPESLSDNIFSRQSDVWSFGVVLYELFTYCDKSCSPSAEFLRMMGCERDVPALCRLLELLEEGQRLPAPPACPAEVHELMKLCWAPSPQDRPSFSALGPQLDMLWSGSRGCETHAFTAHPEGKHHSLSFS
# UniProt P29597: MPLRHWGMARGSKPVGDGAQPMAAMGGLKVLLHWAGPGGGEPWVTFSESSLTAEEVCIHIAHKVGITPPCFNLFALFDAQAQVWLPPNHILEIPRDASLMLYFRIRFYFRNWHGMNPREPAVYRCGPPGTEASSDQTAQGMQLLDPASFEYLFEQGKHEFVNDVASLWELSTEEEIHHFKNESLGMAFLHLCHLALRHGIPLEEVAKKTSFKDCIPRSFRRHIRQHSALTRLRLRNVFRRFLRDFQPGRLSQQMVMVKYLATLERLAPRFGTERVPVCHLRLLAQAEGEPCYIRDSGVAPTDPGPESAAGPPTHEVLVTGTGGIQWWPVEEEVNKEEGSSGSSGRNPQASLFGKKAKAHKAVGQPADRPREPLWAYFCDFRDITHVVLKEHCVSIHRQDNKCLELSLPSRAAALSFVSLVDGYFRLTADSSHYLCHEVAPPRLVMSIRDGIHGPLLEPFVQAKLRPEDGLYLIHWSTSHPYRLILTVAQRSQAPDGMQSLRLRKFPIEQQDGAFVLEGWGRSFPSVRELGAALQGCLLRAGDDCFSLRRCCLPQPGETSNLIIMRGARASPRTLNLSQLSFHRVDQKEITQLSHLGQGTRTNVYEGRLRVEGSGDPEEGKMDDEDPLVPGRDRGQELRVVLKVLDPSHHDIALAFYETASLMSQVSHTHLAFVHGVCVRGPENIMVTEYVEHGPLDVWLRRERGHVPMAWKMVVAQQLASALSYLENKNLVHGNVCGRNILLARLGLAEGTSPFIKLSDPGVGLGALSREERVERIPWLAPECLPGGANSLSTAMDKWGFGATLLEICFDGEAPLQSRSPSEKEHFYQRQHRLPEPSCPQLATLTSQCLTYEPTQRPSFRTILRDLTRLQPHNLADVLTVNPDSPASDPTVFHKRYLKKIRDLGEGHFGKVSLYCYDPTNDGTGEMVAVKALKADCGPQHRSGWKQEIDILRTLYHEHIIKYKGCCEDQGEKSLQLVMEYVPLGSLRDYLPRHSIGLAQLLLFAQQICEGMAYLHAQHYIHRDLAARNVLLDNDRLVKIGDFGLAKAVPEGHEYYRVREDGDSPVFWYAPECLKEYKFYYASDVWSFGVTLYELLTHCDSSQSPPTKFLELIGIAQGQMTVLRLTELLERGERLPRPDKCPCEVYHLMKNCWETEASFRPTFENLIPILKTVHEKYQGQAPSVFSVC
# Settings in all cases: converted from pIC50 with Cheng-Prusoff equation
# JAK1 = JAK1 (Homo sapiens (Human), UniProt P23458); assay: Biochemical JAK kinase assay (LanthaScreen), JAK1
# Procedure: (§1) Assay 1: Biochemical JAK Kinase Assays
# (§2) A panel of four LanthaScreen JAK biochemical assays (JAK1, 2, 3 and Tyk2) were carried in a common kinase reaction buffer (50 mM HEPES, pH 7.5, 0.01% Brij-35, 10 mM MgCl2, and 1 mM EGTA). Recombinant GST-tagged JAK enzymes and a GFP-tagged STAT1 peptide substrate were obtained from Life Technologies.
# (§3) Serially diluted compounds were pre-incubated with each of the four JAK enzymes and the substrate in white 384-well microplates (Corning) at ambient temperature for 1 h. ATP was subsequently added to initiate the kinase reactions in 10 μL total volume, with 1% DMSO. […] The plates were allowed to incubate at ambient temperature for 1 h before being read on the EnVision reader (Perkin Elmer).
# (§4) For dose-response analysis, percent inhibition data were plotted vs. compound concentrations, and IC50 values were determined from a 4-parameter robust fit model with the Prism software (GraphPad Software). Results were expressed as pIC50 (negative logarithm of IC50) and subsequently converted to pKi (negative logarithm of dissociation constant, Ki) using the Cheng-Prusoff equation.
# JAK3 = JAK3 (Homo sapiens (Human), UniProt P52333); assay: Biochemical JAK kinase assay (LanthaScreen), JAK3
# Procedure: as §1, §2, §3, §4
# Tyk2 = Tyk2 (Homo sapiens (Human), UniProt P29597); assay: Biochemical JAK kinase assay (LanthaScreen), Tyk2
# Procedure: as §1, §2, §3, §4
Compound,Ki (JAK1),Ki (JAK3),Ki (Tyk2)
CCc1cc(O)c(F)cc1-c1ccc2c(-c3nc4c([nH]3)CN(CC)C(C(=O)N3CC(N5CCCCC5)C3)C4)n[nH]c2c1 (racemic) [Example 8-4],0.06 nM,0.13 nM,
"CCCN1Cc2[nH]c(-c3n[nH]c4cc(-c5cc(F)c(O)cc5CC)ccc34)nc2C[C@H]1C(=O)N1CC(C)(N(C)C)C1 [Example 8, (S)-(3-(dimethylamino)-3-methylazetidin-1-yl)(2-(6-(2-ethyl-5-fluoro-4-hydroxyphenyl)-1H-indazol-3-yl)-5-propyl-4,5,6,7-tetrahydro-3H-imidazo[4,5-c]pyridin-6-yl)methanone]",0.06 nM,0.16 nM,
CCc1cc(O)c(F)cc1-c1ccc2c(-c3nc4c([nH]3)CN(C)[C@H](C(=O)N3CC(N5CCCCC5)C3)C4)n[nH]c2c1 [Example 8-1],,0.18 nM,
CCc1cc(O)c(F)cc1-c1ccc2c(-c3nc4c([nH]3)CN(C)[C@H](C(=O)N3CC(N(C)C)C3)C4)n[nH]c2c1 [Example 8-2],,0.25 nM,
CCCN1Cc2[nH]c(-c3n[nH]c4cc(-c5cc(F)c(O)cc5CC)ccc34)nc2C[C@H]1C(=O)N1CC(N2CCCCC2)C1 [Example 8-5],0.08 nM,,
CCc1cc(O)c(F)cc1-c1ccc2c(-c3nc4c([nH]3)CN(C(C)C)[C@H](C(=O)N3CC(N5CCCCC5)C3)C4)n[nH]c2c1 [Example 8-6],,0.25 nM,
CCc1cc(O)c(F)cc1-c1ccc2c(-c3nc4c([nH]3)CN(CC)C(C(=O)N3CC(C)(N(C)C)C3)C4)n[nH]c2c1 (stereo not drawn) [Example 8-10],,0.32 nM,
CCCN1Cc2[nH]c(-c3n[nH]c4cc(-c5cc(F)c(O)cc5CC)ccc34)nc2CC1C(=O)N1CC(C)(N(C)C)C1 (stereo not drawn) [Example 8-11],0.1 nM,0.32 nM,
CCc1cc(O)c(F)cc1-c1ccc2c(-c3nc4c([nH]3)CN(C(C)C)C(C(=O)N3CC(C)(N(C)C)C3)C4)n[nH]c2c1 (stereo not drawn) [Example 8-12],,0.25 nM,
"CCc1cc(O)c(F)cc1-c1ccc2c(-c3nc4c([nH]3)CN(CC)[C@H](C(=O)N3CC(N5CCCCC5)C3)C4)n[nH]c2c1 [Example 8-14, (S)-(5-ethyl-2-(6-(2-ethyl-5-fluoro-4-hydroxyphenyl)-1H-indazol-3-yl)-4,5,6,7-tetrahydro-3H-imidazo[4,5-c]pyridin-6-yl)(3-(piperidin-1-yl)azetidin-1-yl)methanone]",,0.2 nM,
CCc1cc(O)c(F)cc1-c1ccc2c(-c3nc4c([nH]3)CN(CC)[C@@H](C(=O)N3CC(N5CCCCC5)C3)C4)n[nH]c2c1 [Example 8-15],,0.4 nM,0.4 nM
CCc1cc(O)c(F)cc1-c1ccc2c(-c3nc4c([nH]3)CN(C(C)C)[C@@H](C(=O)N3CC(N(C)C)C3)C4)n[nH]c2c1 [Example 8-17],0.05 nM,,
CCCN1Cc2[nH]c(-c3n[nH]c4cc(-c5cc(F)c(O)cc5CC)ccc34)nc2C[C@@H]1C(=O)N1CC(C)(N(C)C)C1 [Example 8-19],0.06 nM,0.2 nM,
CCc1cc(O)c(F)cc1-c1ccc2c(-c3nc4c([nH]3)CN(CC)[C@@H](C(=O)N3CC(N(C)C)C3)C4)n[nH]c2c1 [Example 8-20],0.05 nM,,
CCc1cc(O)c(F)cc1-c1ccc2c(-c3nc4c([nH]3)CN(CC)[C@@H](C(=O)N3CC(C)(N(C)C)C3)C4)n[nH]c2c1 [Example 8-21],0.05 nM,0.25 nM,
"CCc1cc(O)c(F)cc1-c1ccc2c(-c3nc4c([nH]3)CN(CC)[C@H](C(=O)N3CC(N(C)C)C3)C4)n[nH]c2c1 [Example 8-22, (S)-(3-(dimethylamino)azetidin-1-yl)(5-ethyl-2-(6-(2-ethyl-5-fluoro-4-hydroxyphenyl)-1H-indazol-3-yl)-4,5,6,7-tetrahydro-3H-imidazo[4,5-c]pyridin-6-yl)methanone]",0.06 nM,,
"CCc1cc(O)c(F)cc1-c1ccc2c(-c3nc4c([nH]3)CN(CC)[C@H](C(=O)N3CC(C)(N(C)C)C3)C4)n[nH]c2c1 [Example 8-23, (S)-(3-(dimethylamino)-3-methylazetidin-1-yl)(5-ethyl-2-(6-(2-ethyl-5-fluoro-4-hydroxyphenyl)-1H-indazol-3-yl)-4,5,6,7-tetrahydro-3H-imidazo[4,5-c]pyridin-6-yl)methanone]",0.05 nM,0.2 nM,

# Reference: patent US10196393B2, “JAK inhibitors containing a 4-membered heterocyclic amide” (THERAVANCE BIOPHARMA R&D IP, LLC, priority 2017, dated 2019)
